The values that follow come from PubChem BioAssay AID1626 (SRMLSC, 2009).

Structures are written as SMILES. The list shows a part of the results. Some results for these compounds are left out of this collection, so the calls shown say nothing about other tests. Calls of active or inactive are those of the source. Rule as the data show it: inconclusive = inhibition above about 80% without an active follow-up result; inactive = below that; test concentration not stated here.

A short description of the assay: M. tuberculosis H37Rv growth inhibitors, H37Rv strain (AID 1626).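 Also: bacteria incubated seven days before Alamar blue readout; 0% = bacteria only wells and 100% = bacteria with antibiotic wells.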 The conditions noted are these: hits give high values, concentration not given here.
What is called inhibition is the drop in the measured response relative to a control, in per cent. Take `COc1cccc(C(=O)NCC2(N3CCCCC3)CCCCC2)c1`: the inhibition was inactive: 0.51%.
Under `O=C(OC1CN2CCC1CC2)C(CO)(c1ccccc1)c1ccccc1` (stereo not given) stands inactive: -7.18%; under `CN(C)c1cccc(C(=O)NCC2(N(C)C)CCCCC2)c1`, inactive: -4.81%; under `O=C(NCC1(N2CCCCC2)CCCCC1)c1cc([N+](=O)[O-])ccc1Cl`, inactive: 8.16%.
Turning to `CCN(CC)CC(C)C(C)OC(=O)C(O)(c1ccccc1)c1ccccc1` (stereo not given), the inhibition is inactive: -6.39%.
Regarding `CC(C)N1C(=O)CC2(CCN(CCOC(=O)C(O)(c3ccccc3)c3ccccc3)CC2)C1=O`, the inhibition is inactive: -9.27%.
Consider `CN(C)C1CCCC1OC(=O)C(O)(c1ccccc1)c1ccccc1` (stereo not given), for which the inhibition is inactive: -2.76%.
The value for `Cc1ccccc1C(=O)NCC1(N2CCCCC2)CCCCC1` was inactive: 1.95%; that for `C=CCN1CCN(CCOC(=O)C(O)(c2ccccc2)c2ccccc2)CC1` was inactive: -1.82%; that for `CCN1CCCC(OC(=O)C2(O)c3ccccc3C=Cc3ccccc32)C1` (stereo not given) was inactive: 11.9%.
